For assay [1], the target named is beta-catenin/TCF4 interaction (Homo sapiens, UniProt P35222). In words: cell-based. Further details: host or cells: HEK293. As to conditions: NanoBRET Abs IC50 (uM). A general note: BRET reads energy transfer from a luciferase to a nearby fluorophore.
Assay [2] has as its target T1, full-length B-Catenin (Uniprot ID P35222) (Homo sapiens, UniProt P35222).
T1 construct: 10 nM full-length B-Catenin (Uniprot ID P35222)
In words: biochemical. It counts as binding. The conditions noted are these: beta-Catenin FP IC50 (nM), competition fluorescence polarization. A general note: In fluorescence polarisation assays a small probe gives low polarisation when free and higher when bound to something large.

Protein sequences, listed by entry. Tags and fused reporters are not part of them.
UniProt P35222, whole entry: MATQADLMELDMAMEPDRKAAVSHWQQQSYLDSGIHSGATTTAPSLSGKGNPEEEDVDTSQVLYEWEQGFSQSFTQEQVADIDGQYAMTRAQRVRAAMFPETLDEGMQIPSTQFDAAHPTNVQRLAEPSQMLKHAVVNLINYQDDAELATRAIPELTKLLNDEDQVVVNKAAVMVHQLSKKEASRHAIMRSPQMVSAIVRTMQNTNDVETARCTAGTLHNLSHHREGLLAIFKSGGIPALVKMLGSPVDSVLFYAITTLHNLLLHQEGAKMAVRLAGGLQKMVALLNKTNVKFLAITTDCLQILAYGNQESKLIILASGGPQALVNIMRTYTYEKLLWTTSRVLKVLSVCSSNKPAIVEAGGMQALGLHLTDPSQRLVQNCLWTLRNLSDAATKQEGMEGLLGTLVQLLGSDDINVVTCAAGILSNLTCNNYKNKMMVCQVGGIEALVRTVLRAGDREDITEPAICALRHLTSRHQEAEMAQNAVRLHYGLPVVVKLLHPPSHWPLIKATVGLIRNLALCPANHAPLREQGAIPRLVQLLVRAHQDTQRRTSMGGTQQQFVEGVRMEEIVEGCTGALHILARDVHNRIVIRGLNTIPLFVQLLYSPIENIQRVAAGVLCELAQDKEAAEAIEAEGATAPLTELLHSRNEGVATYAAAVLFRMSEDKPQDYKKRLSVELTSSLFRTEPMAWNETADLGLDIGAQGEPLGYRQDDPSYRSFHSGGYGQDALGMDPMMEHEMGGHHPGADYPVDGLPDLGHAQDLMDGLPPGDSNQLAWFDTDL

As a reminder, the IC50 is the point on the concentration scale where inhibition reaches its midpoint. On to `CC(=O)N1CCC[C@]12CC=CCCCC1(CCCC=CCCCOC(=O)N3CC[C@@]4(C3)NC(=O)[C@H](CCCCNC(=O)CC[C@@H](C(=O)N[C@@H](C)C(N)=O)NC(=O)[C@H](Cc3csc5ccccc35)NC(=O)[C@H](Cc3ccsc3)NC4=O)NC(=O)[C@H](Cc3ccccc3)NC(=O)[C@H](C)NC(=O)[C@H](C)NC(=O)[C@H](Cc3cccc(C(=O)O)c3)NC(=O)[C@H](CCO)NC1=O)NC(=O)[C@H](CC(C)(C)C)NC(=O)[C@H](CC(=O)O)NC2=O` (relative stereo) [I-83, Ac-PL3-Asp-Npg-B5-Hse-3COOHF-Ala-Ala-Phe-Lys*3-PyrS2-3Thi-BztA-GlnR*3-Ala-NH2], for which the values for the IC50 in assay [1] and in assay [2] were more than 10 µM and 200 to 750 nM, respectively.

Turning to `CC(=O)N1CCC[C@]12CC=CCCCC1(CCCC=CCCCOC(=O)N3CC[C@@]4(C3)NC(=O)[C@H](CCCCNC(=O)CC[C@@H](C(=O)N[C@@H](C)C(N)=O)NC(=O)[C@H](Cc3csc5ccccc35)NC(=O)[C@H](Cc3ccsc3)NC4=O)NC(=O)[C@H](Cc3ccccc3)NC(=O)[C@H](C)NC(=O)[C@H](CO)NC(=O)[C@H](Cc3cccc(C(=O)O)c3)NC(=O)[C@H](CC(=O)O)NC1=O)NC(=O)[C@H](CC(C)(C)C)NC(=O)[C@H](CC(N)=O)NC2=O` (relative stereo) [I-84, Ac-PL3-Asn-Npg-B5-Asp-3COOHF-Ser-Ala-Phe-Lys*3-PyrS2-3Thi-BztA-GlnR*3-Ala-NH2], the IC50 is 3 to 10 µM in assay [1] and less than 50 nM in assay [2].

As to `CC(=O)N1CCC[C@]12CC=CCCCC1(CCCC=CCCCOC(=O)N3CC[C@@]4(C3)NC(=O)[C@H](CCCCNC(=O)CC[C@@H](C(=O)N[C@@H](C)C(N)=O)NC(=O)[C@H](Cc3csc5ccccc35)NC(=O)[C@H](Cc3ccsc3)NC4=O)NC(=O)[C@H](Cc3ccccc3)NC(=O)[C@H](C)NC(=O)[C@H](CO)NC(=O)[C@H](Cc3cccc(C(=O)O)c3)NC(=O)[C@H](CC(=O)O)NC1=O)NC(=O)[C@H](CC(C)(C)C)NC(=O)[C@H](CCO)NC2=O` (relative stereo) [I-85, Ac-PL3-Hse-Npg-B5-Asp-3COOHF-Ser-Ala-Phe-Lys*3-PyrS2-3Thi-BztA-GlnR*3-Ala-NH2], the IC50 in assay [1] is more than 10 µM; in assay [2], 50 to 200 nM.

Consider `CC(=O)N1CCC[C@]12CC=CCCCC1(CCCC=CCCCOC(=O)N3CC[C@@]4(C3)NC(=O)[C@H](CCCCNC(=O)CC[C@@H](C(=O)N[C@@H](C)C(N)=O)NC(=O)[C@H](Cc3csc5ccccc35)NC(=O)[C@H](Cc3ccsc3)NC4=O)NC(=O)[C@H](Cc3ccccc3)NC(=O)[C@H](C)NC(=O)[C@H](CO)NC(=O)[C@H](Cc3cccc(C(=O)O)c3)NC(=O)[C@H](CC(N)=O)NC1=O)NC(=O)[C@H](CC(C)(C)C)NC(=O)[C@H](CC(=O)O)NC2=O` (relative stereo) [I-86, Ac-PL3-Asp-Npg-B5-Asn-3COOHF-Ser-Ala-Phe-Lys*3-PyrS2-3Thi-BztA-GlnR*3-Ala-NH2], for which the results for the IC50 in assay [1] and in assay [2] were more than 10 µM and 50 to 200 nM, respectively.

As for `CC(=O)N1CCC[C@]12CC=CCCCC1(CCCC=CCCCOC(=O)N3CC[C@@]4(C3)NC(=O)[C@H](CCCCNC(=O)CC[C@@H](C(=O)N[C@@H](C)C(N)=O)NC(=O)[C@H](Cc3csc5ccccc35)NC(=O)[C@H](Cc3ccsc3)NC4=O)NC(=O)[C@H](Cc3ccccc3)NC(=O)[C@H](C)NC(=O)[C@H](CCC(N)=O)NC(=O)[C@H](Cc3cccc(C(=O)O)c3)NC(=O)[C@H](CC(=O)O)NC1=O)NC(=O)[C@H](CC(C)(C)C)NC(=O)[C@H](CC(N)=O)NC2=O` (relative stereo) [I-88, Ac-PL3-Asn-Npg-B5-Asp-3COOHF-Gln-Ala-Phe-Lys*3-PyrS2-3Thi-BztA-GlnR*3-Ala-NH2], the IC50 was more than 10 µM in assay [1] and less than 50 nM in assay [2].

Turning to `CC(=O)N1CCC[C@]12CC=CCCCC1(CCCC=CCCCOC(=O)N3CC[C@@]4(C3)NC(=O)[C@H](CCCCNC(=O)CC[C@@H](C(=O)N[C@@H](C)C(N)=O)NC(=O)[C@H](Cc3csc5ccccc35)NC(=O)[C@H](Cc3ccsc3)NC4=O)NC(=O)[C@H](Cc3ccccc3)NC(=O)[C@H](C)NC(=O)[C@H](CCC(N)=O)NC(=O)[C@H](Cc3cccc(C(=O)O)c3)NC(=O)[C@H](CC(=O)O)NC1=O)NC(=O)[C@H](CC(C)(C)C)NC(=O)[C@H](CCO)NC2=O` (relative stereo) [I-89, Ac-PL3-Hse-Npg-B5-Asp-3COOHF-Gln-Ala-Phe-Lys*3-PyrS2-3Thi-BztA-GlnR*3-Ala-NH2], the half-inhibitory concentration (IC50) in assay [1] was more than 10 µM; in assay [2], 50 to 200 nM.

On to `CC(=O)N1CCC[C@]12CC=CCCCC1(CCCC=CCCCOC(=O)N3CC[C@@]4(C3)NC(=O)[C@H](CCCCNC(=O)CC[C@@H](C(=O)N[C@@H](C)C(N)=O)NC(=O)[C@H](Cc3csc5ccccc35)NC(=O)[C@H](Cc3ccsc3)NC4=O)NC(=O)[C@H](Cc3ccccc3)NC(=O)[C@H](C)NC(=O)[C@H](CCC(N)=O)NC(=O)[C@H](Cc3cccc(C(=O)O)c3)NC(=O)[C@H](CC(N)=O)NC1=O)NC(=O)[C@H](CC(C)(C)C)NC(=O)[C@H](CC(=O)O)NC2=O` (relative stereo) [I-90, Ac-PL3-Asp-Npg-B5-Asn-3COOHF-Gln-Ala-Phe-Lys*3-PyrS2-3Thi-BztA-GlnR*3-Ala-NH2], for which the IC50 in assay [1] was more than 10 µM; in assay [2], 50 to 200 nM.

As to `CC(=O)N1CCC[C@]12CC=CCCCC1(CCCC=CCCCOC(=O)N3CC[C@@]4(C3)NC(=O)[C@H](CCCCNC(=O)CC[C@@H](C(=O)N[C@@H](C)C(N)=O)NC(=O)[C@H](Cc3csc5ccccc35)NC(=O)[C@H](Cc3ccccc3C(F)(F)F)NC4=O)NC(=O)[C@H](Cc3ccccc3)NC(=O)[C@H](C)NC(=O)[C@H](CC3CCCCC3)NC(=O)[C@H](Cc3cccc(C(=O)O)c3)NC(=O)[C@H](CC(=O)O)NC1=O)NC(=O)[C@H](CC1CCCCC1)NC(=O)[C@H](CC(=O)O)NC2=O` (relative stereo) [I-103, Ac-PL3-Asp-Cha-B5-Asp-3COOHF-Cha-Ala-Phe-Lys*3-PyrS2-2F3MeF-BztA-GlnR*3-Ala-NH2], the IC50 was 3 to 10 µM in assay [1] and less than 50 nM in assay [2].

Turning to `CC(=O)N1CCC[C@]12CC=CCCCC1(CCCC=CCCCOC(=O)N3CC[C@@]4(C3)NC(=O)[C@H](CCCCNC(=O)CC[C@@H](C(=O)N[C@@H](C)C(N)=O)NC(=O)[C@H](Cc3csc5ccccc35)NC(=O)[C@H](Cc3ccccc3C(F)(F)F)NC4=O)NC(=O)[C@H](Cc3ccccc3)NC(=O)[C@H](C)NC(=O)[C@H](C)NC(=O)[C@H](CN(CC(=O)O)CC(F)(F)F)NC(=O)[C@H](CC(=O)O)NC1=O)NC(=O)[C@H](CC(C)(C)C)NC(=O)[C@H](CC(=O)O)NC2=O` (relative stereo) [I-112, Ac-PL3-Asp-Npg-B5-Asp-TfeGA-Ala-Ala-Phe-Lys*3-PyrS2-2F3MeF-BztA-GlnR*3-Ala-NH2], the IC50 in assay [1] was 3 to 10 µM; in assay [2] it was less than 50 nM.

For `CC(=O)N1CCC[C@]12CC=CCCCC1(CCCC=CCCCOC(=O)N3CC[C@@]4(C3)NC(=O)[C@H](CCCCNC(=O)CC[C@@H](C(=O)N[C@@H](C)C(N)=O)NC(=O)[C@H](Cc3csc5ccccc35)NC(=O)[C@H](Cc3ccccc3C(F)(F)F)NC4=O)NC(=O)[C@H](Cc3ccccc3)NC(=O)[C@H](C)NC(=O)[C@H](CC(C)C)NC(=O)[C@H](CN(CC(=O)O)CC(F)(F)F)NC(=O)[C@H](CC(=O)O)NC1=O)NC(=O)[C@H](CC(C)(C)C)NC(=O)[C@H](CC(=O)O)NC2=O` (relative stereo) [I-122, Ac-PL3-Asp-Npg-B5-Asp-TfeGA-Leu-Ala-Phe-Lys*3-PyrS2-2F3MeF-BztA-GlnR*3-Ala-NH2], the IC50 was more than 10 µM in assay [1] and less than 50 nM in assay [2].

`CC(=O)N1CCC[C@]12CC=CCCCC1(CCCC=CCCCOC(=O)N3CC[C@@]4(C3)NC(=O)[C@H](CCCCNC(=O)CC[C@@H](C(=O)N[C@@H](C)C(N)=O)NC(=O)[C@H](Cc3csc5ccccc35)NC(=O)[C@H](Cc3ccccc3C(F)(F)F)NC4=O)NC(=O)[C@H](Cc3ccccc3)NC(=O)[C@H](C)NC(=O)[C@H](Cc3ccccc3)NC(=O)[C@H](CN(CC(=O)O)CC(F)(F)F)NC(=O)[C@H](CC(=O)O)NC1=O)NC(=O)[C@H](CC(C)(C)C)NC(=O)[C@H](CC(=O)O)NC2=O` (relative stereo) [I-123, Ac-PL3-Asp-Npg-B5-Asp-TfeGA-Phe-Ala-Phe-Lys*3-PyrS2-2F3MeF-BztA-GlnR*3-Ala-NH2]: the IC50 was more than 10 µM in assay [1] and 50 to 200 nM in assay [2].

As to `CC(=O)N1CCC[C@]12CC=CCCCC1(CCCC=CCCCOC(=O)N3CC[C@@]4(C3)NC(=O)[C@H](CCCCNC(=O)CC[C@@H](C(=O)N[C@@H](CC(C)C)C(N)=O)NC(=O)[C@H](Cc3csc5ccccc35)NC(=O)[C@H](Cc3ccccc3C(F)(F)F)NC4=O)NC(=O)[C@H](Cc3ccccc3)NC(=O)[C@H](C)NC(=O)[C@H](C)NC(=O)[C@H](CN(CC(=O)O)CC(F)(F)F)NC(=O)[C@H](CC(=O)O)NC1=O)NC(=O)[C@H](CC(C)(C)C)NC(=O)[C@H](CC(=O)O)NC2=O` (relative stereo) [I-128, Ac-PL3-Asp-Npg-B5-Asp-TfeGA-Ala-Ala-Phe-Lys*3-PyrS2-2F3MeF-BztA-GlnR*3-Leu-NH2], the IC50 in assay [1] lay in the range of 3 to 10 µM; in assay [2], 50 to 200 nM.

On to `CC(=O)N1CCC[C@]12CC=CCCCC1(CCCC=CCCCOC(=O)N3CC[C@@]4(C3)NC(=O)[C@H](CCCCNC(=O)CC[C@@H](C(=O)N[C@H](C(N)=O)C(C)C)NC(=O)[C@H](Cc3csc5ccccc35)NC(=O)[C@H](Cc3ccccc3C(F)(F)F)NC4=O)NC(=O)[C@H](Cc3ccccc3)NC(=O)[C@H](C)NC(=O)[C@H](C)NC(=O)[C@H](CN(CC(=O)O)CC(F)(F)F)NC(=O)[C@H](CC(=O)O)NC1=O)NC(=O)[C@H](CC(C)(C)C)NC(=O)[C@H](CC(=O)O)NC2=O` (relative stereo) [I-129, Ac-PL3-Asp-Npg-B5-Asp-TfeGA-Ala-Ala-Phe-Lys*3-PyrS2-2F3MeF-BztA-GlnR*3-Val-NH2], for which the IC50 was 3 to 10 µM in assay [1] and less than 50 nM in assay [2].

These data come from US20240360179A1, “STAPLED PEPTIDES AND METHODS THEREOF” (FOG PHARMACEUTICALS, INC., priority 2021, published 2024).
